The results in this text go back to patent US9815825B2, “Coumarin derivatives and methods of use in treating cystic fibrosis, chronic obstructive pulmonary disease, and misfolded protein disorders” (DISCOVERYBIOMED, INC., priority 2013, dated 2017).

Sequences of proteins named here, by UniProt entry; tags and fusion partners are left off. A line that says so, or that is headed by a name, gives the form on record, which may keep a tag or linker.
UniProt P13569, with tags, fused parts or gaps DEL508-508: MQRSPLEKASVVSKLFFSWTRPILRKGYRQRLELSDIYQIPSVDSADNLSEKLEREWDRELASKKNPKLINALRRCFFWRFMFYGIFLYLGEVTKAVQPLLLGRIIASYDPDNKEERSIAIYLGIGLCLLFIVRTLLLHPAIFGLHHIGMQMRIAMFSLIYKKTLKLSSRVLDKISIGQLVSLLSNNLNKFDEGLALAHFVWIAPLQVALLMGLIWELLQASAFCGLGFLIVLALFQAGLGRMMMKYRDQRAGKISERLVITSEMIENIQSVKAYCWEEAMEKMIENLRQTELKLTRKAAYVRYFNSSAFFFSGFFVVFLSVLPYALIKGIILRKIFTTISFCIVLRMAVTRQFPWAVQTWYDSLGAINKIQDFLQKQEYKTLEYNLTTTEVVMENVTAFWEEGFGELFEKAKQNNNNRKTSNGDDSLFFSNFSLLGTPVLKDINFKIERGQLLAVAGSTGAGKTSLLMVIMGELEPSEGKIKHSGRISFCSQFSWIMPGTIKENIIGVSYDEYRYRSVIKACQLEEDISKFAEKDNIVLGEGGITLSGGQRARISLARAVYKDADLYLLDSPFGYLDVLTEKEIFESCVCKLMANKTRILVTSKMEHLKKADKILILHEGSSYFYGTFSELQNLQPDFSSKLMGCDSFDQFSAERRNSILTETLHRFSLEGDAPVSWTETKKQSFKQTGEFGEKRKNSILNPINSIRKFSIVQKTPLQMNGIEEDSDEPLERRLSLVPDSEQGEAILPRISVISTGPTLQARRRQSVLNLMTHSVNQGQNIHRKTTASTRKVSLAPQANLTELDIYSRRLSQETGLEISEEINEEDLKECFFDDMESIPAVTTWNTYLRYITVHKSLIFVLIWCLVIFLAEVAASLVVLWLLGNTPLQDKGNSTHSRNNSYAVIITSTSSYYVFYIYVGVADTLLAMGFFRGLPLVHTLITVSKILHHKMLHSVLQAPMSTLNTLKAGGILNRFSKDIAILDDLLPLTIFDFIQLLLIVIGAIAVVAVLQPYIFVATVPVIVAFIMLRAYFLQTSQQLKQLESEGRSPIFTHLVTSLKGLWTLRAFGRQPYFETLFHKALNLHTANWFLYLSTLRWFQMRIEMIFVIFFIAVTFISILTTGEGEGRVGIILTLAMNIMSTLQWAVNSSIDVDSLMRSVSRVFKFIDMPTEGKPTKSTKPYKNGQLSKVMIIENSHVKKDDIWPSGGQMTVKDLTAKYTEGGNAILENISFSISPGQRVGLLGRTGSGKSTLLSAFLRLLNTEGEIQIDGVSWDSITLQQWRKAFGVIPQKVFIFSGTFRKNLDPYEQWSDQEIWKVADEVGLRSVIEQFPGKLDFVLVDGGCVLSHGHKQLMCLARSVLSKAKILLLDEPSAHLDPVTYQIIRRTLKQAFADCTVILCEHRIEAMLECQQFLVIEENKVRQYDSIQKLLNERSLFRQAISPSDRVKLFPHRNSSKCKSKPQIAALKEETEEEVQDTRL

The target in assay [1] is T1, delF508-CFTR Cl-channels (Homo sapiens, UniProt P13569, DEL508-508). As to the kind of experiment: Epithelial VoltOhmmeter (EVOM) electrical bioassay, drop in transepithelial resistance. The assay is classed as cell-based. Conditions: 8-point or 12-point concentration-response curve.
Assay [2] addresses T1, delF508-CFTR Cl-channels. Put plainly: Ussing chamber short-circuit current in polarized CFBE cell monolayers. The format is cell-based. The conditions noted are these: for cAMP-stimulated Cl− current: Ussing chamber.
Another assay has as its system ENaC. Put plainly: Amiloride-sensitive transepithelial voltage in CFBE-delF508 cell monolayers. The format is cell-based, human.
The target of a further assay is delF508-CFTR (Homo sapiens, UniProt P13569, DEL508-508). As to the kind of experiment: Correction and activation of delF508-CFTR in multiple bioassays (fluorescence, biochemical, electrical). The conditions noted are these: read-out: EC50 on correction and activation of delF508-CFTR, basal (unstimulated) conditions, overnight treatment. The format is cell-based.

On to `COc1ccccc1Nc1nc(-c2cc3ccc(N)c([N+](=O)[O-])c3oc2=O)cs1`, for which, on delF508-CFTR Cl-channels [1], the EC50 was determined as 290 nM and the “Maximum Effective Dose” value is 1.0 µM.

`COc1ccccc1Nc1nc(-c2cc3cccc(N)c3oc2=O)cs1`: on delF508-CFTR Cl-channels [1], the EC50 came out at 250 nM and the “Maximum Effective Dose” value was 0.3 µM. In addition, on delF508-CFTR Cl-channels [2] (24 hours treatment), the “cAMP-stimulated Cl− current” value is listed as “triggers cAMP-stimulated Cl^− current at nM concentrations”. Also, the “correction of functional delF508-CFTR chloride ion channels under basal conditions” value on delF508-CFTR Cl-channels [2] (nM concentrations (100 nM in FIG. 35), 24 hours treatment) is “robust correction”.

For `COc1ccccc1Nc1nc(-c2cc3cccc(C)c3oc2=O)cs1`, at delF508-CFTR Cl-channels [1], the EC50 stood at 260 nM and the “Maximum Effective Dose” value came to 1.0 µM.

On to `COc1ccccc1Nc1nc(-c2cc3cccc(C(F)(F)F)c3oc2=O)cs1`, for which, at delF508-CFTR Cl-channels [1], the concentration giving a half-maximal response (EC50) was 280 nM and the “Maximum Effective Dose” value came to 1.0 µM.

On to `COc1ccccc1Nc1nc(-c2cc3cccc(Cl)c3oc2=O)cs1`, for which, at delF508-CFTR Cl-channels [1], the EC50 was 200 nM and the “Maximum Effective Dose” value stood at 0.3 µM. Besides, the “basal Cl currents” value on delF508-CFTR Cl-channels [2] (DBM 308 at 0.3 μM versus VX-809 at 3 μM) is “equivalent or larger than VX-809 at 3 μM”. The “cAMP-stimulated Cl− current” value at delF508-CFTR Cl-channels [2] (24 hours treatment) is listed as “little cAMP-stimulated Cl^− current”. In addition, at delF508-CFTR Cl-channels [2] (as compared to VX 809), the “GlyH101-sensitive Cl− current” value was “less GlyH101-sensitive Cl^− current”. The “effect on amiloride-sensitive transepithelial voltage (VTE)” value in the assay on ENaC (acute addition) is “without effect”. For the same compound, in the assay with ENaC (chronic (overnight) treatment, FIG. 39), the “inhibition of amiloride-sensitive transepithelial voltage (VTE)” value is listed as “inhibited in a dose-dependent manner”. The half-maximal inhibitory concentration (IC50) with ENaC (read-out: IC50 for chronic inhibition of ENaC, both sets of data (FIG. 38 and FIG. 39), chronic treatment) lay in the range of 1000 to 3000 nM. The concentration for a half-maximal effect (EC50) on delF508-CFTR fell in the range of 100 to 1000 nM.
